In patent publication US6380373B1, “Steroid receptor coactivator compositions and methods of use” (Baylor College of Medicine, priority 1995, dated 2002):

Target: T1, GST-PRA (Homo sapiens, UniProt P06401)
T1 construct: made in house; host or cells: Sf9 insect cells (baculovirus)
T1 sequence (P06401 1-769 isoform P06401-2): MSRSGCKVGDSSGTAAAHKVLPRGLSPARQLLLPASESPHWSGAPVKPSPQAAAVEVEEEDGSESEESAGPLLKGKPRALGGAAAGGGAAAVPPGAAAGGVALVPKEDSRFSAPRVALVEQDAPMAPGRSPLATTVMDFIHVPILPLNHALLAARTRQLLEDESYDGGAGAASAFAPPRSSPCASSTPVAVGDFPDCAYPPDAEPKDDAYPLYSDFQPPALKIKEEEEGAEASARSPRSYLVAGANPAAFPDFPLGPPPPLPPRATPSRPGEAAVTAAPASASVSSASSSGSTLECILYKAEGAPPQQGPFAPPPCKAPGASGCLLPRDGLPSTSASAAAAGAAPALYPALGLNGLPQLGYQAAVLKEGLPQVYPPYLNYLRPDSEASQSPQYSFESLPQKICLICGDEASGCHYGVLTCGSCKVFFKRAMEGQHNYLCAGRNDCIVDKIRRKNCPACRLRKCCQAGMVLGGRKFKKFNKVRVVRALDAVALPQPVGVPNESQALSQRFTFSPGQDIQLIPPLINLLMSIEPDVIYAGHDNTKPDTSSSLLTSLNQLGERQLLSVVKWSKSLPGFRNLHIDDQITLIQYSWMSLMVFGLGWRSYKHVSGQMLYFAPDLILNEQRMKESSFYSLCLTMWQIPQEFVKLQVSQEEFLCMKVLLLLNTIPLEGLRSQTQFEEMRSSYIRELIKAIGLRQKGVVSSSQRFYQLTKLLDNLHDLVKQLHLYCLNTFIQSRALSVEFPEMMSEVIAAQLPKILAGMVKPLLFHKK
Test: In vitro binding of [35S]met-SRC-1(0.8) to GST-PRA on glutathione-Sepharose beads
Conditions: receptor bound to 10^−6 M ligand

Compound: CC(=O)[C@H]1CC[C@H]2[C@@H]3CCC4=CC(=O)CC[C@]4(C)[C@H]3CC[C@]12C [progesterone]
- binding of [35S]SRC-1(0.8) to GST-PRA affinity column: retained
